From patent US20220056149A1, “SINGLE-DOMAIN ANTIBODY-CYTOSINE DEAMINASE FUSION PROTEINS” (LUMOSA THERAPEUTICS, CO., LTD., priority 2018, published 2022)

Chains of the proteins cited; added tags and fusions are not shown. A line that says so, or that is headed by a name, gives the form on record, which may keep a tag or linker.
UniProt P35968, with tags, fused parts or gaps limits assumed: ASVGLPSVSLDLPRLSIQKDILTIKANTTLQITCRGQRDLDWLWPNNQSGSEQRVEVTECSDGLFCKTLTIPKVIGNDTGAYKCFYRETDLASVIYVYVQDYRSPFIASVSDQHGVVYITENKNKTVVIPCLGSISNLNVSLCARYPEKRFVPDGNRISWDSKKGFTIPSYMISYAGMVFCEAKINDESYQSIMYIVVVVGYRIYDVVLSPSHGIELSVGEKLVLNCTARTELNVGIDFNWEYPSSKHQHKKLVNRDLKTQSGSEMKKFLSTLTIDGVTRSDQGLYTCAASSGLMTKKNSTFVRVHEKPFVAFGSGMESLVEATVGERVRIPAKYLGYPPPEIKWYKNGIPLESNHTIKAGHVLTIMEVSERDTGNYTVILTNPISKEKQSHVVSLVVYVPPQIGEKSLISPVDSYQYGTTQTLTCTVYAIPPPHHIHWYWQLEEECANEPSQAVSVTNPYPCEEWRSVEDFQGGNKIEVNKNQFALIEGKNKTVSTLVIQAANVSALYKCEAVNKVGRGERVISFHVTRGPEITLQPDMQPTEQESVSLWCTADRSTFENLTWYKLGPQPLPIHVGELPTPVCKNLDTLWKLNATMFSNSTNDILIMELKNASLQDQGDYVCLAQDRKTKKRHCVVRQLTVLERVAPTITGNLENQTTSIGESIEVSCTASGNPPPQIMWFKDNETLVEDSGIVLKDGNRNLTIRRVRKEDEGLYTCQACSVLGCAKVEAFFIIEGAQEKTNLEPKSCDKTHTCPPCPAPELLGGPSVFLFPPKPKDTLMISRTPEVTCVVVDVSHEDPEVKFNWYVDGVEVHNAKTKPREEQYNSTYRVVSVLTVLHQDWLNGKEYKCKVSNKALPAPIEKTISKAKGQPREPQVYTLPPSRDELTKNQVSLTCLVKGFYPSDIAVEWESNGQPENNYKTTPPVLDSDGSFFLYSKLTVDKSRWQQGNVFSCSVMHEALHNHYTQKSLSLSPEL

Legend:
[1] = Stability study (turbidity/appearance) of sdAb-CD produced from different E. coli strains; assay type: physicochemical; design: key to Turbidity: +++++: The number of “+” indicates the turbidity level; +++: The number of “+” indicates the turbidity level; ++: The number of “+” indicates the turbidity level; The number of “+” indicates the turbidity level; “+/−” means that very minor aggregation was observed; conditions: for Turbidity: 3 mg/mL; for precipitations (appearance of purified protein): overall statement on Table 1
Protocol: The 3VGR19-CD-H fusion proteins expressed from SHuffle® T7 Express and T7 Express Competent E. coli were purified and dialyzed into the following four buffers at 3 mg/mL: (1) PBS (2) 1% glycerol in PBS (3) 5% glycerol in PBS (4) 3% mannitol in PBS. The appearances of the purified protein in each buffer were observed after incubation at 37° C. for 3 hours, 37° C. for 8 hours and 4° C. for 1 week, and summarized in Table 1. The number of “+” indicates the turbidity level. “+/−” means that very minor aggregation was observed.

Human VEGFR2-Fc = molecular target: T1, Human VEGFR2-Fc (Homo sapiens, UniProt P35968); experiment: VEGFR2 binding ELISA
T1 construct: Fc; purchased Sino Biological
Protocol: The binding between human VEGFR2 and the sdAb-CD fusion proteins disclosed herein was tested by ELISA. For the VEGFR2 binding assay, the coating antibody Human VEGFR2-Fc (Sino Biological) was diluted to 1 μg/ml in coating buffer (100 mM NaHCO3+32 mM Na2HCO3). Blocking was performed by incubating with blocking buffer (0.25% BSA, 0.05% Tween-20, 0.05% NaN3, 1 mM EDTA) for 2 hours. The tested fusion protein samples were prepared in blocking buffer and added to wells for binding. Rabbit anti-His-HRP (abcam) was diluted 5000-fold in a buffer comprising 0.25% BSA and 0.05% Tween 20 for detection.

human CEACAM5-Fc = molecular target: T2, human CEACAM5-Fc (Homo sapiens, UniProt P06731); experiment: CEA binding ELISA
T2 construct: Fc; purchased novoprotein
Source text: (§1) For the HER2, HER3 and CEA binding assays, the coating antibody for each assay was human ErbB2/Her2-Fc (Acro biosystem), human ErbB3/Her3-Fc (Acro biosystem), and human CEACAM5-Fc (novoprotein), respectively.

hEGFR-Fc = molecular target: T3, hEGFR-Fc (Homo sapiens, UniProt P00533); experiment: EGFR binding ELISA
T3 construct: Fc; purchased Sino Biological
Protocol: For the EGFR binding assay, ELISA plates were coated with hEGFR-Fc (Sino Biological) with concentration 1 μg/mL in coating buffer. Blocking was performed by incubating with blocking buffer (0.25% BSA, 0.05% Tween-20, 0.05% NaN3, 1 mM EDTA) for 2 hours. After blocking, the samples were serial diluted in blocking buffer and added to wells for binding 1 hour. Finally, the secondary antibodies (Rabbit anti-HIS-HRP) were diluted in buffer comprising 0.25% BSA and 0.05% Tween 20 for detection.

human ErbB2/Her2-Fc = molecular target: T4, human ErbB2/Her2-Fc (Homo sapiens, UniProt P04626); experiment: HER2 binding ELISA
T4 construct: Fc; purchased Acro biosystem
Source text: as §1

human ErbB3/Her3-Fc = molecular target: T5, human ErbB3/Her3-Fc (Homo sapiens, UniProt P21860); experiment: HER3 binding ELISA
T5 construct: Fc; purchased Acro biosystem
Source text: as §1

B1: 3VGR19-CD-H: anti-VEGFR2 sdAb 3VGR19 fused via (GGGGS)3 linker to yeast cytosine deaminase, with HIS-tag (protein)
chain: QVQLQESGGGSVQAGGSLRLSCVASGYSVSKNSMGWFRQAPGKEREGVAGINEGGTATYYANSVKGRFTISQDNAKNTVYLQMNTLKPEDTAIYYCAAGSPDPPPLIESVVKYWGQGTQVTVSSGGGGSGGGGSGGGGSVTGGMASKWDQKGMDIAYEEAALGYKEGGVPIGGCLINNKDGSVLGRGHNMRFQKGSATLHGEISTLENCGRLEGKVYKDTTLYTTLSPCDMCTGAIIMYGIPRCVVGENVNFKSKGEKYLQTRGHEVVVVDDERCKKIMKQFIDERPQDWFEDIGEHHHHHH
- Turbidity ([1]; SHuffle T7 Express, buffer 1 (PBS), 4° C., 1 week): +/−
- Turbidity ([1]; SHuffle T7 Express, buffer 2 (1% glycerol in PBS), 4° C., 1 week): +/−
- Turbidity ([1]; SHuffle T7 Express, buffer 3 (5% glycerol in PBS), 4° C., 1 week): +/−
- Turbidity ([1]; SHuffle T7 Express, buffer 4 (3% mannitol in PBS), 4° C., 1 week): +/−
- Turbidity ([1]; T7 Express, buffer 1 (PBS), 4° C., 1 week): +++
- Turbidity ([1]; T7 Express, buffer 1 (PBS), 37° C., 3 hr): +++++
- Turbidity ([1]; T7 Express, buffer 1 (PBS), 37° C., 8 hr): +++++
- Turbidity ([1]; T7 Express, buffer 2 (1% glycerol in PBS), 4° C., 1 week): +++
- Turbidity ([1]; T7 Express, buffer 2 (1% glycerol in PBS), 37° C., 3 hr): +++++
- Turbidity ([1]; T7 Express, buffer 2 (1% glycerol in PBS), 37° C., 8 hr): +++++
- Turbidity ([1]; T7 Express, buffer 3 (5% glycerol in PBS), 4° C., 1 week): +
- Turbidity ([1]; T7 Express, buffer 3 (5% glycerol in PBS), 37° C., 3 hr): +++++
- Turbidity ([1]; T7 Express, buffer 3 (5% glycerol in PBS), 37° C., 8 hr): +++++
- Turbidity ([1]; T7 Express, buffer 4 (3% mannitol in PBS), 4° C., 1 week): ++
- Turbidity ([1]; T7 Express, buffer 4 (3% mannitol in PBS), 37° C., 3 hr): +++++
- Turbidity ([1]; T7 Express, buffer 4 (3% mannitol in PBS), 37° C., 8 hr): +++++
- precipitations (appearance of purified protein) ([1]; expressed from SHuffle T7 Express cells): but not in SHuffle® T7 Express cells
- precipitations (appearance of purified protein) ([1]; expressed from T7 Express cells): a large quantity of precipitations was observed
- binding to VEGFR2 (ELISA) (Human VEGFR2-Fc): bind to VEGFR2

B2: 4VGR17-CD-H: anti-VEGFR2 sdAb 4VGR17 fused to yeast cytosine deaminase, with HIS-tag (protein)
chain: B1 chain with E53Y, S109G
- binding to VEGFR2 (ELISA) (Human VEGFR2-Fc): bind to VEGFR2

B3: 4VGR38-CD-H: anti-VEGFR2 sdAb 4VGR38 fused to yeast cytosine deaminase, with HIS-tag (protein)
chain: QVQLQESGGGSVQAGGSLTLSCEVSGYSVNSNSMGWFRQAPGKEREGVAGINEGGVSTYYANFVQGRFTISQDNAKNMVYLQMNSLKPEDTAIYYCAAGAPDPPPLIESIVKYWGQGTQVTVSSGGGGSGGGGSGGGGSVTGGMASKWDQKGMDIAYEEAALGYKEGGVPIGGCLINNKDGSVLGRGHNMRFQKGSATLHGEISTLENCGRLEGKVYKDTTLYTTLSPCDMCTGAIIMYGIPRCVVGENVNFKSKGEKYLQTRGHEVVVVDDERCKKIMKQFIDERPQDWFEDIGEHHHHHH
- binding to VEGFR2 (ELISA) (Human VEGFR2-Fc): bind to VEGFR2

B4: AntiCEA-CDoem3-H: anti-CEA sdAb (ABS29544.1) fused to CDoem3, with HIS-tag (protein)
chain: EVQLVESGGGFVQAGESLTLSCTSSTLTFTPYRMAWYRQAPGKQRDLVADISSGDGRTTNYADFAKGRFTISRDNIKNTVFLRMTNLKPEDTAVYYCNTFVSFVGIARSWGQGTQVTVSSGGGGSGGGGSGGGGSVTGGMASKWDQKGMDIAYEEALLGYKEGGVPIGGCLINNKDGSVLGRGHNMRFQKGSATLHGEISTLENCGRLEGKVYKDTTLYTTLSPCDMCTGAIIMYGIPRCVIGENVNFKSKGEKYLQTRGHEVVVVDDERCKKLMKQFIDERPQDWFEDIGEHHHHHH
- binding to CEACAM5 (ELISA) (human CEACAM5-Fc): bind to CEACAM5

B6: 2D3-CDoem3-H: anti-HER2 sdAb 2D3 fused to CDoem3, with HIS-tag (protein)
chain: EVQLVESGGSLVQPGGSLRLSCAASGFTFDDYAMSWVRQVPGKGLEWVSSINWSGTHTDYADSVKGRFTISRNNANNTLYLQMNSLKSEDTAVYYCAKNWRDAGTTWFEKSGSAGQGTQVTVSSGGGGSGGGGSGGGGSVTGGMASKWDQKGMDIAYEEALLGYKEGGVPIGGCLINNKDGSVLGRGHNMRFQKGSATLHGEISTLENCGRLEGKVYKDTTLYTTLSPCDMCTGAIIMYGIPRCVIGENVNFKSKGEKYLQTRGHEVVVVDDERCKKLMKQFIDERPQDWFEDIGEHHHHHH
- binding to HER2 (ELISA) (human ErbB2/Her2-Fc): bind to HER2

B8: 47D5-CDoem3-H: anti-HER2 sdAb 47D5 fused to CDoem3, with HIS-tag (protein)
chain: KVQLVESGGGLVQPGGSLRLSCAASGSIFGFNDMAWYRQAPGKQRELVALISRVGVTSSADSVKGRFTISRVNAKDTVYLQMNSLKPEDTAVYYCYMDQRLDGSTLAYWGQGTQVTVSSGGGGSGGGGSGGGGSVTGGMASKWDQKGMDIAYEEALLGYKEGGVPIGGCLINNKDGSVLGRGHNMRFQKGSATLHGEISTLENCGRLEGKVYKDTTLYTTLSPCDMCTGAIIMYGIPRCVIGENVNFKSKGEKYLQTRGHEVVVVDDERCKKLMKQFIDERPQDWFEDIGEHHHHHH
- binding to HER2 (ELISA) (human ErbB2/Her2-Fc): bind to HER2

Second part, the molecule after the results:

- binding to EGFR (ELISA) (hEGFR-Fc): bind to EGFR
B5: VHH122-CD-H: anti-EGFR sdAb VHH122 fused to yeast cytosine deaminase, with HIS-tag (protein)
chain: EVQLQESGGGLVQAGDSLRLSCLVSGRSFNSYTMGWFRQAPGKEREFVAAILWSGPTTYYADSVKGRFTISRDNAKNTVYLQMNSLKPEDTAVYYCAAALGVLVLAPGNVYSYWGQGTQVTVSSGGGGSGGGGSGGGGSVTGGMASKWDQKGMDIAYEEAALGYKEGGVPIGGCLINNKDGSVLGRGHNMRFQKGSATLHGEISTLENCGRLEGKVYKDTTLYTTLSPCDMCTGAIIMYGIPRCVVGENVNFKSKGEKYLQTRGHEVVVVDDERCKKIMKQFIDERPQDWFEDIGEHHHHHH

- binding to HER3 (ELISA) (human ErbB3/Her3-Fc): binds to HER3
B7: BCD090-M2-CDoem3-H: anti-HER3 sdAb BCD090-M2 fused to CDoem3, with HIS-tag (protein)
chain: MQVQLVQSGGGLVQAGGSLRLSCAFSGRTFSMYTMGWFRQAPGKEREFVAANRGRGLSPDIADSVNGRFTISRDNAKNTLYLQMDSLKPEDTAVYYCAADLQYGSSWPQRSSAEYDYWGQGTTVTVSSGGGGSGGGGSGGGGSVTGGMASKWDQKGMDIAYEEALLGYKEGGVPIGGCLINNKDGSVLGRGHNMRFQKGSATLHGEISTLENCGRLEGKVYKDTTLYTTLSPCDMCTGAIIMYGIPRCVIGENVNFKSKGEKYLQTRGHEVVVVDDERCKKLMKQFIDERPQDWFEDIGEGSSHHHHHH

- binding to CEACAM5 (ELISA) (human CEACAM5-Fc): bind to CEACAM5
B9: NbCEA5-CDoem3-H: anti-CEA sdAb NbCEA5 fused to CDoem3, with HIS-tag (protein)
chain: QVQLVESGGGSVQAGGSLRLSCAASGDTYGSYWMGWFRQAPGKEREGVAAINRGGGYTVYADSVKGRFTISRDTAKNTVYLQMNSLRPDDTADYYCAASGVLGGLHEDWFNYWGQGTQVTVSSGGGGSGGGGSGGGGSVTGGMASKWDQKGMDIAYEEALLGYKEGGVPIGGCLINNKDGSVLGRGHNMRFQKGSATLHGEISTLENCGRLEGKVYKDTTLYTTLSPCDMCTGAIIMYGIPRCVIGENVNFKSKGEKYLQTRGHEVVVVDDERCKKLMKQFIDERPQDWFEDIGEHHHHHH

Positions count from the first letter of the chain named. Each block holds one molecule with its values, some of them ahead of it.
